What was measured:
human FXR [1] = biological target: T1, human FXR (Homo sapiens, UniProt Q96RI1); test: FXR-bla reporter gene assay, agonist mode (qHTS); conditions: Table S1, primary screening
human FXR [2] = biological target: T1, human FXR; test: FXR-bla reporter gene assay, antagonist mode (CDCA-induced transactivation); conditions: Table S1, primary screening; 50 µM CDCA

By UniProt entry, the sequences of proteins in these tests, tags left out. Chains listed by the source or under a name are the forms on record and can include a tag or linker.
UniProt Q96RI1, with tags, fused parts or gaps limits assumed: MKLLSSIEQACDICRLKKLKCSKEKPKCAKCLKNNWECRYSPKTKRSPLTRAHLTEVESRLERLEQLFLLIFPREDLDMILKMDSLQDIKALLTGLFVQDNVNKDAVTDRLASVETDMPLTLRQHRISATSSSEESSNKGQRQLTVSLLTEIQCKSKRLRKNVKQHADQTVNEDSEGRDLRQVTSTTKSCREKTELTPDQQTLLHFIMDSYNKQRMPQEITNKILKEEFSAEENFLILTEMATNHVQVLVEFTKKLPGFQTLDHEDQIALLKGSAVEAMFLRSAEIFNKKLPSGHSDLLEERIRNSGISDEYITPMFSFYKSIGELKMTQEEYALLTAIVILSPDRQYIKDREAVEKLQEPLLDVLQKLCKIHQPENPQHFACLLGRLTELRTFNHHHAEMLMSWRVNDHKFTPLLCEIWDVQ

C/C=C1/C(=O)C[C@H]2[C@@H]3CCC4=CC(=O)CC[C@]4(C)[C@H]3CC[C@]12C [(E)-Guggulsterone]
FXR agonist mode EC50 (human FXR [1]): Inactive
FXR antagonist mode Efficacy (human FXR [2]): 58 ± 33%

C/C=C1\C(=O)C[C@H]2[C@@H]3CCC4=CC(=O)CC[C@]4(C)[C@H]3CC[C@]12C [(Z)-Guggulsterone]
FXR agonist mode EC50 (human FXR [1]): Inactive
FXR antagonist mode Efficacy (human FXR [2]): 124 ± 4%

Reference: article PMC4894417, “Quantitative High-Throughput Profiling of Environmental Chemicals and Drugs that Modulate Farnesoid X Receptor” (Scientific Reports, 2014)
